# Measurements reported in PubChem BioAssay AID434926 (Sanford-Burnham Center for Chemical Genomics, 2010).
# The chains behind the UniProt entries cited, without tags or fusion partners.
# UniProt P09923, whole entry: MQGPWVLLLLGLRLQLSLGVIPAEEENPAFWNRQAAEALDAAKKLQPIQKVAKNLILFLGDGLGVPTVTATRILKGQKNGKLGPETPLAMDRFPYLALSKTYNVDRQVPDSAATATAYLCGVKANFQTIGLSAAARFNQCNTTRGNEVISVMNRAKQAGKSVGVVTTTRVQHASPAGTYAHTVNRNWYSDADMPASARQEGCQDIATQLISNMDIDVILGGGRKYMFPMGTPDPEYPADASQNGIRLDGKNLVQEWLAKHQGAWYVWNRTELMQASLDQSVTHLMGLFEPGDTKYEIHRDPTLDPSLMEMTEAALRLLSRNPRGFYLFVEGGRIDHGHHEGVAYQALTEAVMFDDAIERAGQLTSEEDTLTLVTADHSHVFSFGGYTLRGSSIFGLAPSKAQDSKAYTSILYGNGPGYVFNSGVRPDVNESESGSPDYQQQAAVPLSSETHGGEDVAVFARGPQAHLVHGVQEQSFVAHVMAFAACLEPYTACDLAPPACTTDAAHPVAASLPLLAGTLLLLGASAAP
# The list shows a part of the results, in another mix than the full data. The source made the active and inactive calls.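 Rule for the calls: active = at least twofold enzyme activation in any of six single-dose repeats, which the averaged readout prints as negative percent; inactive = the rest.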
# Molecular target: Intestinal-type alkaline phosphatase (Homo sapiens) (UniProt P09923)
# Assay: enhancement of intestinal alkaline phosphatase activity – biochemical, luminescence, single concentration, uHTS hits, confirmation (AID 434926)
# Conditions: purified IAP, CDP-Star luminescence, 30 min; at 8.3 µM; active compounds read low
smiles,measurement,value
COc1ccc(OP(C)(=O)Nc2ccc(Br)cc2)cc1 (stereo unspecified),"activation (%Activity, negative = activation)",inactive: -23.8%
